Data: patent US20040259082A1 (priority 2001, published 2004)

B1: D654P: polymerase-defective D654P mutant of T7 DNA polymerase exo- (protein, UniProt P00581 1-704, looked up, variant D654P)
DNA-directed DNA polymerase: MIVSDIEANALLESVTKFHCGVIYDYSTAEYVSYRPSDFGAYLDALEAEVARGGLIVFHNGHKYDVPALTKLAKLQLNREFHLPRENCIDTLVLSRLIHSNLKDTDMGLLRSGKLPGKRFGSHALEAWGYRLGEMKGEYKDDFKRMLEEQGEEYVDGMEWWNFNEEMMDYNVQDVVVTKALLEKLLSDKHYFPPEIDFTDVGYTTFWSESLEAVDIEHRAAWLLAKQERNGFPFDTKAIEELYVELAARRSELLRKLTETFGSWYQPKGGTEMFCHPRTGKPLPKYPRIKTPKVGGIFKKPKNKAQREGREPCELDTREYVAGAPYTPVEHVVFNPSSRDHIQKKLQEAGWVPTKYTDKGAPVVDDEVLEGVRVDDPEKQAAIDLIKEYLMIQKRIGQSAEGDKAWLRYVAEDGKIHGSVNPNGAVTGRATHAFPNLAQIPGVRSPYGEQCRAAFGAEHHLDGITGKPWVQAGIDASGLELRCLAHFMARFDNGEYAHEILNGDIHTKNQIAAELPTRDNAKTFIYGFLYGAGDEKIGQIVGAGKERGKELKKKFLENTPAIAALRESIQQTLVESSQWVAGEQQVKWKRRWIKGLDGRKVHVRSPHAALNTLLQSAGALICKLWIIKTEEMLVEKGLKHGWDGDFAYMAWVHPEIQVGCRTEEIAQVVIETAQEAMRWVGDHWNFRCLLDTEGKMGPNWAICH
modifications: exonuclease-deficient, changes unstated

Key:
[1] = test system: single-stranded M13 DNA template; experiment: Strand-displacement DNA synthesis; details: primed M13 ssDNA; 200 μM dNTPs; 1 hr at 37° C.
[2] = Primer extension assay of T7 pol-mutant; type: biochemical; details: primer extension assay of FIG. 9
Method: FIG. 11 illustrates the lack of polymerase activity of the T7 pol-mutant. The T7 pol-mutant was tested for activity using the primer extension assay of FIG. 9. (Lane 1) Pol+control, 4 dNTPs. (Lane 2) Pol+control, dTTP only. (Lane 3) Pol+control, no dNTPs. (Lane 4) complete reaction with pol-mutant.
Asp-654 chelates the active-site Mg++ in T7 polymerase (see, Doublie et al., Structure, 7:R31-R35 (1999)), so changing it to a non-acidic residue should inactivate the polymerization function. Stratagene's QuikChange kit was used to make a D654P mutation.

| Molecule | strand-displacement synthesis [1] | polymerase activity [2] |
| --- | --- | --- |
| φ29 polymerase: purified C-Terminal His-tagged φ29 polymerase from clone SEQ. ID. NO: 37 | production of M13 concatemers too large to enter the gel | – |
| B1 | – | no polymerase activity |
